Results reported in patent US9902690B2, “Ethoxylated surfactants” (priority 2013, dated 2018).

Test: Solubility (surfactant parameters, standard procedures)

Substance	Solubility [mM]
polyoxyethylene (20) stearyl ether	20
polyoxyethylene (10) stearyl ether	0.30
